Data taken from IntAct's records for PubMed 26766587.

B1: Myc proto-oncogene protein (Homo sapiens), P01106 (parent)
chain: MDFFRVVENQQPPATMPLNVSFTNRNYDLDYDSVQPYFYCDEEENFYQQQQQSELQPPAPSEDIWKKFELLPTPPLSPSRRSGLCSPSYVAVTPFSLRGDNDGGGGSFSTADQLEMVTELLGGDMVNQSFICDPDDETFIKNIIIQDCMWSGFSAAAKLVSEKLASYQAARKDSGSPNPARGHSVCSTSSLYLQDLSAAASECIDPSVVFPYPLNDSSSPKSCASQDSSAFSPSSDSLLSSTESSPQGSPEPLVLHEETPPTTSSDSEEEQEDEEEIDVVSVEKRQAPGKRSESGSPSAGGHSKPPHSPLVLKRCHVSTHQHNYAAPPSTRKDYPAAKRVKLDSVRVLRQISNNRKCTSPRSSDTEENVKRRTHNVLERQRRNELKRSFFALRDQIPELENNEKAPKVVILKKATAYILSVQAEEQKLISEEDLLRKRREQLKHKLEQLRNSCA
partner: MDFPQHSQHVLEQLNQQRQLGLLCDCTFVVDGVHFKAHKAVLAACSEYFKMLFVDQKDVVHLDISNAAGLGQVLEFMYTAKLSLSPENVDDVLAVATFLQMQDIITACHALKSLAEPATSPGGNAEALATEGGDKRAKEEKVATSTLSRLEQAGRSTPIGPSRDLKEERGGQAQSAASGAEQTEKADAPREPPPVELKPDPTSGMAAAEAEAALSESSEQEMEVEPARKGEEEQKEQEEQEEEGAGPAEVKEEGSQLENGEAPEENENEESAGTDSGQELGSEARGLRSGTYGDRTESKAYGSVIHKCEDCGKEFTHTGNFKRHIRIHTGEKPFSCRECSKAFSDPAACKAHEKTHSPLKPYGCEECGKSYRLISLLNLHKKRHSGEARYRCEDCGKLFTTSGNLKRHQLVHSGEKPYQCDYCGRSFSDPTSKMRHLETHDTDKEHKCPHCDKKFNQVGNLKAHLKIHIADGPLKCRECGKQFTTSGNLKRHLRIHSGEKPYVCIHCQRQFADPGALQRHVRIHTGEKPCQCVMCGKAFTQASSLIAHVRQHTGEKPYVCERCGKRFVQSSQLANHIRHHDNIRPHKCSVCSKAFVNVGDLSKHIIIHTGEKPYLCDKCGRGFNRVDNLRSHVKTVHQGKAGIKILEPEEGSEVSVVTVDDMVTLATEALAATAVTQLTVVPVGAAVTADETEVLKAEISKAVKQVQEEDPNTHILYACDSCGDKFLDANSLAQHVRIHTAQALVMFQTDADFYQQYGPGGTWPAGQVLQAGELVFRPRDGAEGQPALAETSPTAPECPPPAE

Variants of: B1
Settings: with zbt17_human ZBTB17, Q13105

Variant | effect of a mutation on the interaction
V409D | decreasing interaction strength
